# The list is not random: actives were taken first. Their share in the collection is about 0.91%.
# Statin myotox sup: suppressors of simvastatin-induced myotoxicity in C2C12 myotubes. ATP luminescence, 48 h; scaled: DMSO 0, geranylgeraniol control 100. rescue of ATP level, % at 7.49 µM. actives 0.78% (n = 330,000). AID 602340;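 active = mean ATP rescue above about 67%, or every replicate alone reaching that limit, limit read from the data, passing the limit was not always enough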;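 also: myotubes were challenged with 10 µM simvastatin during compound exposure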
# PGC1a acetyl inh: PGC1a acetylation modulation, inhibitor mode; U2OS PGC1a acetylation, AlphaScreen anti-acetyl-lysine; with virally co-expressed GCN5 acetyltransferase; inhibition, % at 15.6 µM; actives 0.17% (n = 350,000);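 active = every replicate shows inhibition of at least 40%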;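 also: 0% = neutral control wells and 100% = positive control wells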
# iPSC survival up: hiPSC single-cell survival enhancement; ATPlite luminescence; 100% = ROCK inhibitor wells, 0% = DMSO; survival enhancement, % at 20 µM; actives 0.044% (n = 360,000); in the data active = survival enhancement above about 18%;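 also: cells exposed to compounds for 16 hours before the ATP read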
# UUG fidelity: alters start codon recognition fidelity in yeast | S. cerevisiae UUG-firefly luciferase reporter, luminescence/redox ratio | activity score, % at 18.7 µM | hit rate 0.13% among 350,000 | AID 602363;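 active means replicate mean at a twofold rise or more, about +100% in these data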;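 further: firefly luciferase made from a UUG start codon reports start codon fidelity; reporter light over untreated wells divided by growth signal over untreated wells; some hits fall short of that in this replicate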
# FN deposit inh: fibronectin deposition inhibition; AH1F fibroblasts, Alexa488-fibronectin deposition fluorescence, overnight; AID 743247; actives 0.086% (n = 350,000); inhibition, % at 12.6 µM;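 active = mean inhibition across replicates of 30% or more, regardless of how many single replicates reach that level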;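 also: positive control wells lacked labelled fibronectin entirely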
#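 Material: AH1F fibroblasts assembling fluorescent fibronectin matrix; amount: 10000 AH1F cells/well; medium: DMEM, 2% serum; reagent: Alexa488-fibronectin, 24 nM final in well; dosing: single compound dose, delivered by pin transfer; incubation: 1 h adhesion, overnight exposure; detection: fluorescence after three HBSS washes, excitation 485 nm, emission 525 nm; measure: fibronectin deposition inhibition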
# An asterisk follows results filed as active; nt = no result given.
1	COc1ccc2c3c([nH]c2c1)[C@H](CO)N(C(=O)NC1CCCC1)CC31CCN(C(=O)Nc2cccc(F)c2)CC1
2	CCc1nc(N)nc(N)c1-c1ccc(Cl)cc1
3	C[C@@H]1CN([C@H](C)CO)C(=O)c2cc(NC(=O)c3ccccc3)ccc2O[C@@H](C)CCCCO[C@H]1CN(C)S(C)(=O)=O
4	O=C(Cn1ncc(Cl)c(Cl)c1=O)N1CCN(S(=O)(=O)c2ccc3ccccc3c2)CC1
5	CSCC[C@H](NC(=O)c1ccc(Br)o1)c1nnc2ccccn12
6	CSCC[C@H](NC(=O)c1cccs1)c1nnc2ccccn12
screen / no. | 1 | 2 | 3 | 4 | 5 | 6
UUG fidelity | nt | -17 | nt | -15 | -3 | 7
Statin myotox sup | nt | -6 | -10 | -27 | 11 | -7
FN deposit inh | nt | -13 | nt | 5 | -14 | 8
iPSC survival up | nt | 0 | nt | -1 | 0 | 0
PGC1a acetyl inh | 2 | 48* | -4 | 77* | 43* | 9

7	COc1ccc(S(=O)(=O)N(C)C[C@@H]2OCCCC[C@H](C)Oc3ccc(NS(=O)(=O)c4ccc(Cl)cc4)cc3C(=O)N([C@@H](C)CO)C[C@H]2C)cc1
8	Cc1cc(C)c(NC(=O)c2ccc(S(=O)(=O)N(C)C)cc2)c(C)n1
9	N#C[C@H]1[C@H](c2ccc(-c3ccc(F)cc3)cc2)[C@@H](CO)N1C(=O)Cc1ccccc1
10	N#C[C@@H]1[C@@H](c2ccc(-c3ccc(F)cc3)cc2)[C@@H](CO)N1C(=O)Cc1ccccc1
11	N#C[C@H]1[C@@H](c2ccc(-c3cccc(F)c3)cc2)[C@H](CO)N1C(=O)NC1CCCC1
12	N#C[C@@H]1[C@@H](c2ccc(C#CC3CCCC3)cc2)[C@H](CO)N1C(=O)Cc1ccccn1
screen / no. | 7 | 8 | 9 | 10 | 11 | 12
UUG fidelity | nt | -4 | -7 | 8 | 1 | nt
Statin myotox sup | nt | 23 | 70* | 14 | -24 | nt
FN deposit inh | 6 | nt | 5 | -7 | 16 | 4
iPSC survival up | nt | 2 | nt | nt | nt | nt
PGC1a acetyl inh | 14 | 50* | 2 | -7 | -1 | 1

13	CC(C)NC(=O)N1[C@H](C#N)[C@@H](c2ccc(-c3ccc(F)cc3)cc2)[C@@H]1CO
14	N#C[C@@H]1[C@@H](c2ccc(-c3cccc(F)c3)cc2)[C@H](CO)N1C(=O)NC1CCCC1
15	N#C[C@H]1[C@H](c2ccc(C#CC3CCCC3)cc2)[C@H](CO)N1C(=O)Cc1ccccn1
16	O=C(C[C@@H]1CC[C@H](NC(=O)CC2CC2)[C@@H](CO)O1)NCC(F)(F)F
17	CC(C)NC(=O)N(C)C[C@H]1OCCCC[C@H](C)Oc2ccc(NS(=O)(=O)c3cn(C)cn3)cc2C(=O)N([C@@H](C)CO)C[C@H]1C
18	CCCS(=O)(=O)N1CCCC(C(=O)NCCN2CCC(Cc3ccccc3)CC2)C1 (stereo unspecified)
screen / no. | 13 | 14 | 15 | 16 | 17 | 18
UUG fidelity | nt | -1 | nt | -8 | -5 | -5
Statin myotox sup | 76* | 108* | nt | 1 | nt | 117*
FN deposit inh | 5 | 2 | 3 | -12 | 0 | nt
iPSC survival up | nt | nt | nt | nt | nt | -2
PGC1a acetyl inh | -7 | 7 | 59* | 8 | 4 | -3

19	C[C@@H]1CN([C@@H](C)CO)C(=O)c2cc(C#Cc3ccccc3)cnc2O[C@H]1CN(C)C(=O)CCN1CCCCC1
20	Cc1nc2sc(C(c3ccc(Br)cc3)N3CC(C)OC(C)C3)c(O)n2n1 (stereo unspecified)
21	CC1=C(C(=O)OC(C)(C)C)C(c2ccc3ccccc3c2)NC(=O)N1C (stereo unspecified)
22	COC(=O)C1=C(C)N(C)C(=O)NC1c1ccc(C)cc1 (stereo unspecified)
23	O=C(N[C@H]1C=C[C@@H](CC(=O)N2CCc3ccccc3C2)O[C@H]1CO)C1CCC1
24	CCOC(=O)C1(CC)NC(c2ccco2)C2C(=O)N(CC)C(=O)C21 (stereo unspecified)
screen / no. | 19 | 20 | 21 | 22 | 23 | 24
UUG fidelity | 1 | -16 | 0 | -6 | 4 | -1
Statin myotox sup | 4 | 91* | 23 | -1 | 2 | 9
FN deposit inh | nt | nt | 0 | nt | -4 | -9
iPSC survival up | nt | 0 | 0 | 2 | nt | -2
PGC1a acetyl inh | -7 | 0 | 66* | 0 | -14 | 2

# Complete entries as entered above.
# N#C[C@@H]1[C@@H](c2ccc(-c3ccc(F)cc3)cc2)[C@@H](CO)N1C(=O)Cc1ccccc1 is entered as UUG fidelity = 8; Statin myotox sup = 14; FN deposit inh = -7; iPSC survival up = nt; PGC1a acetyl inh = -7
# N#C[C@@H]1[C@@H](c2ccc(-c3cccc(F)c3)cc2)[C@H](CO)N1C(=O)NC1CCCC1 is entered as UUG fidelity = -1; Statin myotox sup = 108*; FN deposit inh = 2; iPSC survival up = nt; PGC1a acetyl inh = 7

# Continuation:
25	CCOC(=O)C1(CCSC)NC(c2ccco2)C2C(=O)N(CC)C(=O)C21 (stereo unspecified)
26	CN1C[C@@H](O)COC[C@@H]2O[C@H](CC(=O)N3CCN(c4ccccc4)CC3)CC[C@H]21
27	Nc1ccccc1SCC(=O)N1CCc2ccccc21
28	O=C(CSCCO)N1CCc2ccccc21
29	COC(=O)CCC(=O)N1CCOCCOCCN(C(=O)CCC(=O)OC)CCOCCOCC1
30	COC(=O)CCCC(=O)N1CCOCCN(C(=O)CCCC(=O)OC)CCOCC1
screen / no. | 25 | 26 | 27 | 28 | 29 | 30
UUG fidelity | -1 | -5 | -12 | 19 | -6 | 0
Statin myotox sup | 104* | -2 | 11 | 116* | nt | 110*
FN deposit inh | -5 | 0 | nt | -22 | nt | nt
iPSC survival up | 3 | nt | -2 | -1 | -2 | 5
PGC1a acetyl inh | 4 | 3 | 2 | 9 | 9 | 1

31	COC(=O)C[C@@H]1CC[C@H]2[C@H](COc3ccc(NC(=O)Nc4ccc(Cl)cc4)cc3C(=O)N2C)O1
32	Fc1ccc(-c2csc(Nc3ccccn3)n2)cc1
33	c1ccc(Nc2nc(-c3cccs3)cs2)nc1
34	Cc1cccc(Nc2nc(-c3cccs3)cs2)n1
35	O=C([C@@H]1[C@@H](CO)[C@@H]2Cn3c(cccc3=O)[C@@H]2N1C(=O)C1CCCC1)N1CCOCC1
36	CS(=O)(=O)Nc1ccc2c(c1)[C@H]1C[C@H](CC(=O)NCC3CC3)O[C@@H](CO)[C@H]1O2
screen / no. | 31 | 32 | 33 | 34 | 35 | 36
UUG fidelity | -7 | -36 | -42 | -26 | nt | nt
Statin myotox sup | -9 | 154* | 148* | 11 | nt | -3
FN deposit inh | -1 | 2 | nt | nt | 4 | nt
iPSC survival up | nt | 0 | -3 | -1 | nt | nt
PGC1a acetyl inh | 15 | nt | -2 | -6 | -4 | -11

37	C/C=C/c1ccccc1[C@@H]1[C@H](C#N)N(S(=O)(=O)c2cccc(F)c2)[C@H]1CO
38	CC1CCN(S(=O)(=O)c2ccc(Oc3ccc([N+](=O)[O-])cc3)cc2)CC1
39	CN(C)c1ccc(/C=C/c2ccc3c4ccccc4ccc3[n+]2-c2ccccc2)cc1
40	COc1ccccc1-c1cc(C(F)(F)F)nc(S(=O)(=O)CCCC(=O)N2CCCCC2C)n1 (stereo unspecified)
41	C=CCN(c1ccc(C(=O)Nc2ccc3c(c2)n(C)c(=O)n3C)cc1)S(C)(=O)=O
42	C=CCN(c1ccc(C(=O)Nc2ccc3c(c2)OCO3)cc1)S(C)(=O)=O
screen / no. | 37 | 38 | 39 | 40 | 41 | 42
UUG fidelity | nt | nt | 95 | -3 | -14 | nt
Statin myotox sup | nt | nt | -171 | 84* | -3 | -10
FN deposit inh | -14 | 5 | 27 | 16 | -1 | 1
iPSC survival up | nt | -2 | 0 | -6 | 0 | 1
PGC1a acetyl inh | 7 | 54* | 44* | 21 | 7 | 93*

43	Cc1cccc(Oc2nc3c(c(=O)n(C)c(=O)n3C)n2C)c1
44	Cn1c(=O)c2c(nc(Oc3ccccc3)n2C)n(C)c1=O
45	CCN(CC)CC(C)(C)C(=O)/C=C/c1ccc(/C=C/C(=O)C(C)(C)CN(CC)CC)cc1
46	C[C@H](CO)N1C[C@H](C)[C@H](CN(C)CC2CC2)Oc2ccc(NC(=O)C3CCCCC3)cc2C1=O
47	CC(SC(C)C(=O)NN=Cc1ccc(F)cc1)C(=O)NN=Cc1ccc(F)cc1 (stereo unspecified)
48	CC(SC(C)C(=O)NN=Cc1cccc(Cl)c1)C(=O)NN=Cc1cccc(Cl)c1 (stereo unspecified)
screen / no. | 43 | 44 | 45 | 46 | 47 | 48
UUG fidelity | -17 | -11 | nt | -9 | -12 | -13
Statin myotox sup | 3 | 142* | nt | -21 | 122* | -7
FN deposit inh | nt | nt | 46* | nt | 2 | nt
iPSC survival up | -1 | 7 | 0 | nt | -3 | -2
PGC1a acetyl inh | 2 | 7 | nt | 0 | 3 | -8
